This is an account of results in US7611713B2 (priority 1999, dated 2009).

In one assay the test system is A*2401. Put plainly: HLA class I peptide binding assay, A*2401. Set-up: species or system human.
The subject of another assay is HLA-DR alleles. The following applies: result in words; cited from earlier work.

Consider SWLSLLVPF [Peptide 20.0136], for which, in the assay on A*2401 (HBV A24 supermotif peptides, HLA-A*2401 binding value as printed, no unit given in the table), the “A*2401 (binding information)” value is 0.3900. For the same substance, the “A*2401 binding” value with A*2401 (Table XVII, HBV A24 motif peptides, unit not given) worked out at 0.3900.

With aKXVWANTLKAAa, in the assay with HLA-DR alleles, the “binding to HLA-DR alleles” value was “bind to most HLA-DR alleles”.
